Measurements: US8143424B2, “Thyroid like compounds” (Torrent Pharmaceuticals Ltd., priority 2007, dated 2012)

Columns and labels:
[1] = biological target: T1, THR α1 (Homo sapiens, UniProt P10827); test: Thyroid α1 transactivation (TRE reporter, luciferase) in COS7 cells; assay type: cell-based; settings: Conc. 20 uM, 24 hours, vs vehicle control
T1 construct: GAL4 (plasmid pGAL4); expressed in transfected cells; host or cells: COS7
T1 sequence (P10827 1-410 isoform P10827-2): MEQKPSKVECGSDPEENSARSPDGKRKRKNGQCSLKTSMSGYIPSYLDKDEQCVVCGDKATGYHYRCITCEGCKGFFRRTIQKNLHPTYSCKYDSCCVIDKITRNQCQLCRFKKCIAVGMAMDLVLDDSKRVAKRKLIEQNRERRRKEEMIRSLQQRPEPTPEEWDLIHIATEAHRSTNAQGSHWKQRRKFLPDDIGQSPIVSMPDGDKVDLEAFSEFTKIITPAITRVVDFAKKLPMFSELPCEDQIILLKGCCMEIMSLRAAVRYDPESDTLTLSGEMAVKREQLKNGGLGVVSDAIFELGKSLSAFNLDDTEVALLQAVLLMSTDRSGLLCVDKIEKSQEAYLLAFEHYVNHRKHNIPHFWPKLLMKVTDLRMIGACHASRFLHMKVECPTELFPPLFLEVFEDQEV
Description: (§1) Compounds of the present invention were tested for their effect on O2 consumption (metabolic effect), LDL cholesterol, glucose levels, insulin levels and food consumption (appetite stimulant) and also to assess transcriptional activity of thyroid hormone receptor by in vitro TRE (Thyroid receptor element) reporter assay for TRα1 and TRβ1.
(§2) COS7 cells were transiently transfected with pGAL4 […]/Thyroid α1 or pGAL4/Thyroid β1 and pLuc Pur. The cells were cotransfected with pLacZNorm for normalization of transfection efficiency. Transfected cells were then treated with different concentrations of compounds of present invention, vehicle for 24 hours.
(§3) Cells were the lysed and luciferase activity was monitored in all samples. Results were expressed as fold activation as compared to vehicle control.
(§4) Results: Thyroid(α1/β1) transactivation in COS7 cells.

[2] = biological target: T2, THR β1 (Homo sapiens, UniProt P10828); test: Thyroid β1 transactivation (TRE reporter, luciferase) in COS7 cells; assay type: cell-based; settings: Conc. 20 uM, 24 hours, vs vehicle control
T2 construct: GAL4 (plasmid pGAL4); expressed in transfected cells; host or cells: COS7
T2 sequence (P10828 1-461): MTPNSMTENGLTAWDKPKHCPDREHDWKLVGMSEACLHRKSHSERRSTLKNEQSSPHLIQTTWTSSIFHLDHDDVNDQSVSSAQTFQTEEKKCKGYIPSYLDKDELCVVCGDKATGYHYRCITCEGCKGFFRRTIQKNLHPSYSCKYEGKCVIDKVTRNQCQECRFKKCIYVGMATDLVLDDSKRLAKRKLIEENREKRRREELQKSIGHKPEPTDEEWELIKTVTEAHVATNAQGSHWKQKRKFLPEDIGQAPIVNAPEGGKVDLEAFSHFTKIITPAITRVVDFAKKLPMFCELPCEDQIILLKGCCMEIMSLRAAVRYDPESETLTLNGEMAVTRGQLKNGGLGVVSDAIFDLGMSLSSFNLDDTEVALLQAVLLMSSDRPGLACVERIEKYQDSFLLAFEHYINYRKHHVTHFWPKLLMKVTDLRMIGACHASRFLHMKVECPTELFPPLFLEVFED
Description: as §1, §2, §3, §4

## 3-[4-(7-Hydroxy-indan-4-yloxy)-3-thiophen-2-yl-pyrazol-1-yl]-propionic acid And 3-[4-(7-Hydroxy-indan-4-yloxy)-5-thiophen-2-yl-pyrazol-1-yl]-propionic acid [Compound 7]
[1]
  α1 Fold Activation: 3 Fold
[2]
  β1 Fold Activation: 1 Fold
